Structures are written as SMILES. The list shows a part of the results, in another mix than the full data. Some results for these compounds are left out of this collection, so the calls shown say nothing about other tests. The source made the active and inactive calls.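 The calls were made as follows: active = B-score of calcium response area above 5 SD of library B-scores, with initial fluorescence ratio within 5 SD of library; inactive = the rest.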

Protein sequences, listed by entry. Tags and fused reporters are not part of them.
UniProt Q9QUQ5, whole entry: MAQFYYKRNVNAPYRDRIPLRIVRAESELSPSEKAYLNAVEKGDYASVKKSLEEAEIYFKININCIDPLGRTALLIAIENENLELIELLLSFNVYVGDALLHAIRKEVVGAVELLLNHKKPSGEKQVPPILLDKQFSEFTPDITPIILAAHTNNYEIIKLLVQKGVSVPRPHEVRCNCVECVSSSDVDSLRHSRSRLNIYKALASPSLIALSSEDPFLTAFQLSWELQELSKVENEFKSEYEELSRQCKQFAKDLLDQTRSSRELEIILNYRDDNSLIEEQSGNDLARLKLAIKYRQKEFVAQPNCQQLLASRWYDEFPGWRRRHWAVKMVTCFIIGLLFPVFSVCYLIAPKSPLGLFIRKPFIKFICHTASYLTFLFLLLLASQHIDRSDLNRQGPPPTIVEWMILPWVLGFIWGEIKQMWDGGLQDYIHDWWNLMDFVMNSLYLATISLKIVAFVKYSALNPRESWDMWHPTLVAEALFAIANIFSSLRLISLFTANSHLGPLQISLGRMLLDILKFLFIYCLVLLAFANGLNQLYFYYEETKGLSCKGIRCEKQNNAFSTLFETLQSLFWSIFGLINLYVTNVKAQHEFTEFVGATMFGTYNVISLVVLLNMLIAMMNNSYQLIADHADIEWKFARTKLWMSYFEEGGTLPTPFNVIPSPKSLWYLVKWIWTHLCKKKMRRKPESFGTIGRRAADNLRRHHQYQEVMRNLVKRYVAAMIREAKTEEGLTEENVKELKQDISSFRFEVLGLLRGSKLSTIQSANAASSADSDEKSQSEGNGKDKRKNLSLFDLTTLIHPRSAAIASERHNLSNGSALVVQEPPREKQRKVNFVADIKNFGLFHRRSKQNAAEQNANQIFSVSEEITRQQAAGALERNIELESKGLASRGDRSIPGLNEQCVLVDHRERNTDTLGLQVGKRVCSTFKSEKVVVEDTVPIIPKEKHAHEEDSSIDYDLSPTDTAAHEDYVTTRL

The assay has as its target Short transient receptor potential channel 4 (Mus musculus) (UniProt Q9QUQ5). As to the kind of experiment: TRPC4 channel potentiators under submaximal DAMGO – cell-based, mouse TRPC4beta, HEK293 mu-opioid, Fluo-4 calcium, primary screen (AID 2227). The note with it: DAMGO EC20, Fluo-4 Ca2+ flux, at 10 µM.
As for `CN1[C@@H]2CC[C@H]1CC(OC(=O)C(O)(c1ccccc1)c1ccccc1)C2` (some centres undefined), the outcome was inactive. With `O=C(NCC1(N2CCCCC2)CCCCC1)c1cc([N+](=O)[O-])ccc1Cl`, the result was inactive. To `Cc1ccc(C(=O)NCC2(N3CCCCC3)CCCCC2)cc1` belongs “inactive”.

As to `COc1cc(SC)ccc1C(=O)NCC1(N(C)C)CCCCC1`, the outcome was inactive. The same measure for `CCN(CC)CC(C)C(C)OC(=O)C(O)(c1ccccc1)c1ccccc1` (centres undefined): “inactive”; for `CC(C)N1C(=O)CC2(CCN(CCOC(=O)C(O)(c3ccccc3)c3ccccc3)CC2)C1=O`: “inactive”. For `CN(C)C1CCCC1OC(=O)C(O)(c1ccccc1)c1ccccc1` (centres undefined), the result was inactive.

In the case of `CN(C)c1ccc(C(=O)NCC2(N(C)C)CCCCC2)cc1`, the result was inactive. To `Cc1ccccc1C(=O)NCC1(N2CCCCC2)CCCCC1` belongs “inactive”.

On to `COc1ccc(C(=O)NCC2(N(C)C)CCCCC2)cc1`, for which the outcome was inactive. As for `O=C(NCC1(N2CCCCC2)CCCCC1)c1cccc(Br)c1`, the result was inactive. On to `Cc1cc(C(=O)NCC2(N3CCCCC3)CCCCC2)ccc1[N+](=O)[O-]`, for which the result was inactive. With `CCN1CCCC(OC(=O)C2(O)c3ccccc3C=Cc3ccccc32)C1` (centres undefined), the outcome was inactive. To `O=C(NCC1(N2CCCCC2)CCCCC1)c1cc(F)c(F)cc1Cl` belongs “inactive”. In the case of `C=CCN1CCN(CCOC(=O)C(O)(c2ccccc2)c2ccccc2)CC1`, the outcome was inactive. For `COc1cc(C(=O)NCC2(N(C)C)CCCCC2)c([N+](=O)[O-])cc1OC`, the outcome was inactive. For the compound `CN(C)C1(CNC(=O)c2ccc(Br)cc2)CCCCC1`, the result was inactive. The same measure for `O=C(NCC1(N2CCCCC2)CCCCC1)c1cccc(Cl)c1`: “inactive”.

For the compound `COc1ccc(Cl)cc1C(=O)NCC1(N(C)C)CCCCC1`, the outcome was inactive. To `COc1cccc(C(=O)NCC2(N3CCCCC3)CCCCC2)c1` belongs “inactive”; to `O=C(OC1CN2CCC1CC2)C(CO)(c1ccccc1)c1ccccc1` (centres undefined), “inactive”; to `CC(C)Oc1ccc(C(=O)NCC2(N(C)C)CCCCC2)cc1`, “inactive”. The same measure for `CN(C)c1cccc(C(=O)NCC2(N(C)C)CCCCC2)c1`: “inactive”. To `COc1ccc(Br)c(C(=O)NCC2(N3CCCCC3)CCCCC2)c1` belongs “inactive”.

These data come from PubChem BioAssay AID2227 (Johns Hopkins Ion Channel Center, 2009).
